Experiment [1] has as its target HLA-DQA1*01:02/DQB1*06:02 (Homo sapiens, UniProt P01909+P01920, A157G/A45G/C70R/E118A/E183D/E77G/F83G/G63E/H151Q/H199R/H252R/H253Q/I129T/I235V/I88M/INS77G/K197Q/L117V/L119F/L178F/L71W/L74F/L85Q/L91A/L98M/N214S/P87R/Q116E/Q76K/R102G/R240Q/R75S/R78G/S102Y/S185I/S41F/S97I/T121G/T122I/T172A/T86R/V229M/V68A/V73E/Y34C/Y41F/Y58L). Briefly: Competitive inhibition HLA II binding assay. The note with it: competition with radiolabeled probe peptide, purified HLA II, 0.3 nM–30 µM, 2-day incubation; mean of three or more independent assays.

Experiment [2] concerns the target HLA-DQA1*02:01/DQB1*02:02 (Homo sapiens, UniProt P01909+P01920, A45G/A70V/C70K/D167G/D89A/E106A/E183D/E77G/E98D/F237L/F77L/G63E/H199R/I129T/K197E/L107V/L178F/L74F/N214S/P84L/P87L/Q57E/Q76R/R75H/S185I/S97I/T103K/T109R/T172A/T60S/V73L/V78E/V99I/Y48F/Y58L/Y62S/Y69I/Y79F). In words: Competitive inhibition HLA II binding assay. Conditions: competition with radiolabeled probe peptide, purified HLA II, 0.3 nM–30 µM, 2-day incubation; mean of three or more independent assays.

Experiment [3] has as its target HLA-DQA1*05:01/DQB1*02:01 (Homo sapiens, UniProt P01909+P01920, A45G/A70V/D89A/E106A/E77G/E98D/H199R/L107V/N214S/P84L/P87L/T103K/T109R/T172A/T60S/V78E/V99I/Y58L/Y62S/Y69I/Y79F). Briefly: biochemical.
Experiment [4] has as its target HLA-DQA1*05:01/DQB1*03:01 (Homo sapiens, UniProt P01909+P01920). Briefly: biochemical.
Experiment [5] concerns the target HLA-DQA1*01:01/DQB1*05:01 (Homo sapiens, UniProt P01909+P01920, A157S/A45G/A70V/C70R/D89V/E106S/E118A/E183D/E77G/F83G/G63E/H151Q/H199R/H252R/H253Q/I129T/I235V/I88M/INS77G/K197Q/L107V/L117V/L119Y/L178F/L71W/L74F/L85Q/L91A/L98M/M46L/N214S/P87R/Q116E/Q256R/Q57E/Q76K/R102G/R240Q/R75S/R78G/S102Y/S185I/S41F/S97I/T103A/T109R/T121G/T122I/T172A/T86R/V148I/V68A/V73E/Y34C/Y58G/Y62H). Briefly: Competitive inhibition HLA II binding assay. Conditions: competition with radiolabeled probe peptide, purified HLA II, 0.3 nM–30 µM, 2-day incubation; mean of three or more independent assays.

Experiment [6] addresses HLA-DQA1*03:01/DQB1*03:01 (Homo sapiens, UniProt P01909+P01920, A209T/C70Q/DUP78-78/E183D/F237L/G63E/I129T/K197E/L178F/L74F/L98V/Q57E/Q76R/S185I/S97I/T49S/V73L). In words: Competitive inhibition HLA II binding assay. Conditions: competition with radiolabeled probe peptide, purified HLA II, 0.3 nM–30 µM, 2-day incubation; mean of three or more independent assays.

IC50 data for seven molecules are collected here from paper PMC8471592, “Characterization of Conserved and Promiscuous Human Rhinovirus CD4 T Cell Epitopes” (Cells, 2021).

Usually IC50 stands for the concentration that inhibits the measured activity by half. High values mean weaker potency in that assay, low ones greater potency in that assay.

The structures appear in SMILES notation.

As for `CC[C@H](C)[C@H](NC(=O)CNC(=O)[C@H](CCCCN)NC(=O)[C@H](CCC(=O)O)NC(=O)[C@H](CC(C)C)NC(=O)[C@@H](NC(=O)[C@H](CC(=O)O)NC(=O)[C@H](CCCCN)NC(=O)[C@@H](N)C(C)C)C(C)C)C(=O)N1CCC[C@H]1C(=O)N[C@H](C(=O)N[C@@H](CC(C)C)C(=O)N[C@@H](CCC(N)=O)C(=O)N[C@@H](CO)C(=O)N1CCC[C@H]1C(=O)N[C@H](C(=O)N[C@H](C(=O)N[C@@H](CCC(=O)O)C(=O)O)C(C)C)[C@@H](C)O)[C@@H](C)O` [RVA57–74], the IC50 stood at 71 nM in experiment [1], 3080 nM in experiment [2], 27200 nM in experiment [3] and 14800 nM in experiment [4].
For `CC[C@H](C)[C@H](NC(=O)[C@@H](NC(=O)[C@H](CO)NC(=O)[C@@H](N)CC(=O)O)[C@@H](C)O)C(=O)N[C@H](C(=O)N[C@@H](CO)C(=O)N[C@@H](CCC(N)=O)C(=O)N[C@@H](CC(=O)O)C(=O)N[C@H](C(=O)N[C@@H](C)C(=O)N[C@@H](CC(N)=O)C(=O)N[C@@H](C)C(=O)N[C@H](C(=O)N[C@H](C(=O)NCC(=O)N[C@@H](Cc1ccc(O)cc1)C(=O)NCC(=O)N[C@H](C(=O)O)C(C)C)C(C)C)C(C)C)C(C)C)[C@@H](C)O` [RVA89–106], the IC50 in experiment [5] is 7560 nM; in experiment [1], 33 nM; in experiment [2] it was 515 nM; in experiment [6], 761 nM; in experiment [3], 907 nM; in experiment [4], 68 nM.
Regarding `CC(C)C[C@H](NC(=O)[C@H](Cc1ccc(O)cc1)NC(=O)[C@H](Cc1c[nH]cn1)NC(=O)[C@@H]1CCCN1C(=O)[C@H](Cc1c[nH]c2ccccc12)NC(=O)[C@@H](NC(=O)CNC(=O)[C@H](Cc1ccc(O)cc1)NC(=O)CNC(=O)[C@@H](NC(=O)[C@@H](NC(=O)[C@H](C)NC(=O)[C@H](CC(N)=O)NC(=O)[C@H](C)NC(=O)[C@@H](N)C(C)C)C(C)C)C(C)C)C(C)C)C(=O)N[C@H](C(=O)N1CCC[C@H]1C(=O)N[C@@H](CCC(=O)O)C(=O)O)[C@@H](C)O` [RVA97–114], the IC50 in experiment [5] is 20 nM; in experiment [1] it was 6410 nM; in experiment [6], 2250 nM; in experiment [3], 270 nM; in experiment [4], 724 nM.
Take `CC[C@H](C)[C@H](N)C(=O)N[C@@H](CC(N)=O)C(=O)N[C@@H](CC(C)C)C(=O)N[C@@H](CCCNC(=N)N)C(=O)N[C@H](C(=O)N[C@@H](CC(N)=O)C(=O)N[C@@H](CC(N)=O)C(=O)N[C@@H](CO)C(=O)N[C@@H](CO)C(=O)N[C@H](C(=O)N[C@H](C(=O)N[C@H](C(=O)N[C@H](C(=O)N1CCC[C@H]1C(=O)N[C@@H](Cc1ccc(O)cc1)C(=O)N[C@H](C(=O)N[C@@H](CC(N)=O)C(=O)O)[C@@H](C)CC)C(C)C)C(C)C)[C@@H](C)CC)[C@@H](C)O)[C@@H](C)O` [RVC258–274]: the IC50 stood at 5200 nM in experiment [5], 67 nM in experiment [1], 434 nM in experiment [2] and 19100 nM in experiment [3].
Take `CC[C@H](C)[C@H](NC(=O)[C@H](CC(=O)O)NC(=O)[C@H](CCCNC(=N)N)NC(=O)[C@H](Cc1ccccc1)NC(=O)[C@H](CCCCN)NC(=O)[C@H](CCC(=O)O)NC(=O)[C@@H](N)CCCCN)C(=O)N[C@@H](CCCNC(=N)N)C(=O)N[C@@H](CCCNC(=N)N)C(=O)N[C@@H](Cc1ccccc1)C(=O)N[C@H](C(=O)N1CCC[C@H]1C(=O)O)[C@@H](C)CC` [RVC1582–1592]: the IC50 in experiment [5] amounted to 2950 nM; in experiment [3], 7430 nM.
For the molecule `CC(C)C[C@H](NC(=O)CN)C(=O)N[C@@H](CCC(=O)O)C(=O)N1CCC[C@H]1C(=O)N[C@@H](CC(C)C)C(=O)N[C@@H](CC(=O)O)C(=O)N[C@@H](CC(C)C)C(=O)N[C@@H](CC(N)=O)C(=O)N[C@H](C(=O)N[C@@H](CO)C(=O)N[C@@H](C)C(=O)NCC(=O)N[C@@H](Cc1ccccc1)C(=O)N1CCC[C@H]1C(=O)N[C@@H](Cc1ccc(O)cc1)C(=O)N[C@H](C(=O)O)C(C)C)[C@@H](C)O` [RVC1791–1806], the IC50 in experiment [1] worked out at 1920 nM; in experiment [2], 191 nM; in experiment [6], 10400 nM; in experiment [3], 12400 nM; in experiment [4] it was 1820 nM.
Turning to `CC(C)C[C@H](NC(=O)[C@H](CCC(=O)O)NC(=O)[C@H](CC(=O)O)NC(=O)[C@H](CCCCN)NC(=O)[C@H](CC(C)C)NC(=O)[C@H](Cc1ccc(O)cc1)NC(=O)[C@@H](NC(=O)[C@@H](NC(=O)[C@H](Cc1ccc(O)cc1)NC(=O)[C@@H]1CCCN1C(=O)[C@H](CC(C)C)NC(=O)[C@@H](N)CC(=O)O)C(C)C)[C@@H](C)O)C(=O)N[C@@H](CCCNC(=N)N)C(=O)O` [RVC1835–1847], the IC50 in experiment [5] turned out to be 12700 nM; in experiment [2] it was 5670 nM; in experiment [3], 171 nM.
